Patent publication US8802674B2, “Aminopyrimidine derivatives as LRRK2 modulators” (Genentech, Inc., priority 2011, dated 2014)

By UniProt entry, the sequences of proteins in these tests, tags left out. Residues count along the entry.
UniProt Q5S007, 970-2527 G2019S limits assumed: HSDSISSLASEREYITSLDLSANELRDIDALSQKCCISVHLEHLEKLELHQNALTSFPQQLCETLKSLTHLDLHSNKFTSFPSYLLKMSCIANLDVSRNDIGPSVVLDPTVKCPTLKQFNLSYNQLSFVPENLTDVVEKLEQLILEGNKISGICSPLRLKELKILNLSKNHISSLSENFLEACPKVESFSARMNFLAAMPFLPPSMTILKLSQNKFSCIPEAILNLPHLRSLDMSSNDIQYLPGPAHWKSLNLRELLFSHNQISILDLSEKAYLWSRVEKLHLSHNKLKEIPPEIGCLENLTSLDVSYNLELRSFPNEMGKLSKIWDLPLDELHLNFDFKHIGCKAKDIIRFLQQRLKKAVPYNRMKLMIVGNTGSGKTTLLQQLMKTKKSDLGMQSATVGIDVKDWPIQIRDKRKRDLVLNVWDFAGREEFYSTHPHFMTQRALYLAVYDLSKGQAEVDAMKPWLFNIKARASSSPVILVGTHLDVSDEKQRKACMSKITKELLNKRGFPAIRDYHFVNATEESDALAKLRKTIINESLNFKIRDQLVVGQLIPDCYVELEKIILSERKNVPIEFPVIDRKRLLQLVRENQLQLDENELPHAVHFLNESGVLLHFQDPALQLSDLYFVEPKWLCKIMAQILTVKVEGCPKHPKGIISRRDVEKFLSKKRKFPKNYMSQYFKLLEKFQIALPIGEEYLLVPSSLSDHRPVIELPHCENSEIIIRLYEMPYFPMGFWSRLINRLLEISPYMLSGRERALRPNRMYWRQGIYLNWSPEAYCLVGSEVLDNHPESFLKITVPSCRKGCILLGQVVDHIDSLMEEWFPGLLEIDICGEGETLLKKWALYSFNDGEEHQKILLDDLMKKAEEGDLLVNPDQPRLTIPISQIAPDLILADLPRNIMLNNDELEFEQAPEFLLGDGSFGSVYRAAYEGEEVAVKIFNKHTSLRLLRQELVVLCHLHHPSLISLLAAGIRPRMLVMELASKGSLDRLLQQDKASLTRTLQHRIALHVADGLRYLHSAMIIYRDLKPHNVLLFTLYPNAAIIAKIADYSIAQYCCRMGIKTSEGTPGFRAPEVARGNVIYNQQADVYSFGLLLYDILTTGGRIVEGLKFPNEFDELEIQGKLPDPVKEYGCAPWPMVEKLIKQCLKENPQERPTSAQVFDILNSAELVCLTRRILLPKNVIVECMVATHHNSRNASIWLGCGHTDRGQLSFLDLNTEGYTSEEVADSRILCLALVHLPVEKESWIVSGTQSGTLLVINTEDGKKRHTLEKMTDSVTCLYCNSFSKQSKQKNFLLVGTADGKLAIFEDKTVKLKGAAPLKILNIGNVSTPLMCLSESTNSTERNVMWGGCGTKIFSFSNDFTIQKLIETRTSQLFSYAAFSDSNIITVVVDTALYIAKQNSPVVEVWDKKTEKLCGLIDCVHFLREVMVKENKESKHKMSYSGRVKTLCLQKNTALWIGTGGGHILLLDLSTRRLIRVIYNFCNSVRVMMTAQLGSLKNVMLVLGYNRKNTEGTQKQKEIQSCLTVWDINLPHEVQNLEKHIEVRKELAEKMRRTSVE

Biological target: LRRK2 (Homo sapiens (Human), UniProt Q5S007, G2019S)
Assay: In Vitro LRRK2 LabChip Assay
Type: biochemical
Settings: Table 4
Method: In Vitro LRRK2 LabChip Assay
This assay was used to determine a compound's potency in inhibiting activity of LRRK2 by determining, Kiapp, IC50, or percent inhibition values. In a polypropylene plate, LRRK2, fluorescently-labeled peptide substrate, ATP and test compound were incubated together. Using a LabChip 3000 (Caliper Life Sciences), after the reaction the substrate was separated by capillary electrophoresis into two populations: phosphorylated and unphosphorylated. The relative amounts of each were quantitated by fluorescence intensity. LRRK2 Ki was determined according to the equation: Y=V0*(1−((x+Ki*(1+S/Km)+Et)/(2*Et)−(((x+Ki*(1+S/Km)+Et)^2−(4*Et*x))^0.5)/(2*Et))). Ki values in Table 4 and elsewhere herein are shown in μM.
Assay conditions and materials used were as follows:
Compound Plate Preparation:
For serial dilutions, 34.6 μl DMSO was added to columns 3-24. […]
The plate was incubated for 2 hours in the dark. […] Results were read on the LabChip 3000. […]

## CCN1CCN(C(=O)c2ccc(Nc3ncc(Br)c(OC)n3)c(OC)c2)CC1 [Example 83, [4-(5-Bromo-4-methoxy-pyrimidin-2-ylamino)-3-methoxy-phenyl]-(4-ethyl-piperazin-1-yl)-methanone]
  Ki: 2.5 nM
